Data: ChEMBL document CHEMBL1130280, “2-(1-Naphthyloxy)ethylamines with enhanced affinity for human 5-HT1D beta (h5-HT1B) serotonin receptors” (J Med Chem, 1997)

Amino acid sequences for entries named in this document (tags omitted).
UniProt P28222, whole entry: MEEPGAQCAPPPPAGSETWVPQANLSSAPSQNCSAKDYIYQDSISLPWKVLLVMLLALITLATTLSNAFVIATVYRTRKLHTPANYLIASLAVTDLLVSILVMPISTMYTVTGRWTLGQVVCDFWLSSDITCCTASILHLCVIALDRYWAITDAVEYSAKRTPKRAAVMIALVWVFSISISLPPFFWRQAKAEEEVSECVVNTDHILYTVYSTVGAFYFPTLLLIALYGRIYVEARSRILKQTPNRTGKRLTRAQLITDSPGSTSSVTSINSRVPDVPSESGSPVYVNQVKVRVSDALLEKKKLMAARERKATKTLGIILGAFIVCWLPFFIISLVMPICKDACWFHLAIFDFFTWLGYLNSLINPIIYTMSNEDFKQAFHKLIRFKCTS

Molecular target: 5-hydroxytryptamine receptor 1B (Homo sapiens, UniProt P28222)
Experiment: Agonist activity to the human recombinant 5-hydroxytryptamine 1B receptor
Assay type: functional
Procedure, shortened: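 CHO Pro 5 cells stably transfected with human recombinant 5-HT1Dβ receptors. Agonism was read as inhibition of cAMP production stimulated by 10 μM forskolin with 0.5 mM IBMX. Compound was added to the culture medium for 30 min at 37 °C. The reaction was stopped with cold ethanolic 5 mM EDTA (2:1 v/v), and extracted cAMP was quantified by enzyme immunoassay, with serotonin as the reference agonist.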

| Ki [µM] | Structure (SMILES) |
| --- | --- |
| 4.1 | CC(C)NC[C@H](O)COc1cccc2ccccc12 [LEVOPROPRANOLOL] |
| > 10 | CC(C)NCC(O)COc1cccc2ccccc12 (racemic) [PROPRANOLOL] |
